Source: patent US20230165967A1

Target: recombinant human soluble ECD of CD64/FCGRIA (human) (UniProt P12314)
Test: ELISA: plate coated with recombinant human CD64/FCGRIA ECD, antibody titrated, HRP goat anti-human Fc, OD650

| EC50 (read off the curve) [µg/mL] | Substance |
| --- | --- |
| 4 | Anti-EGFR Ab No. 2 L234A, L235A (antibody; other documents disagree on this pair) |
| 0.04 | Anti-EGFR Ab No. 2 Wild Type (antibody; other documents disagree on this pair) |
